Reference: PubChem BioAssay (NCI)
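1) Cells in 96-well plates. 2) Compound, 48 h, 5 concentrations. 3) Linear interpolation between surrounding doses. 4) Unreached endpoint = highest concentration. Definition used: TGI = concentration required for complete inhibition of growth.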

Tests used:
Assay in all cases: DTP human tumour cell line panel, 48 h
EKVX NSCLC = test system: EKVX NSCLC
TK-10 renal = test system: TK-10 renal
NCI/ADR-RES ovarian = test system: NCI/ADR-RES ovarian
MOLT-4 leukemia = test system: MOLT-4 leukemia
SR leukemia = test system: SR leukemia
HOP-92 NSCLC = test system: HOP-92 NSCLC
NCI-H322M lung = test system: NCI-H322M lung
HCT-116 colon = test system: HCT-116 colon
SK-OV-3 ovarian = test system: SK-OV-3 ovarian
OVCAR-4 ovarian = test system: OVCAR-4 ovarian
NCI-H23 lung = test system: NCI-H23 lung
K-562 leukemia = test system: K-562 leukemia
SN12C renal = test system: SN12C renal
MDA-MB-435 = test system: MDA-MB-435
HCC-2998 colon = test system: HCC-2998 colon
OVCAR-3 ovarian = test system: OVCAR-3 ovarian
SF-295 CNS = test system: SF-295 CNS
786-0 renal = test system: 786-0 renal
MALME-3M melanoma = test system: MALME-3M melanoma
MDA-N = test system: MDA-N
A498 renal = test system: A498 renal
HOP-62 NSCLC = test system: HOP-62 NSCLC
SNB-75 CNS = test system: SNB-75 CNS
SK-MEL-5 melanoma = test system: SK-MEL-5 melanoma
SF-539 CNS = test system: SF-539 CNS
OVCAR-5 ovarian = test system: OVCAR-5 ovarian
SK-MEL-28 melanoma = test system: SK-MEL-28 melanoma
RPMI-8226 leukemia = test system: RPMI-8226 leukemia
NCI-H226 lung = test system: NCI-H226 lung
ACHN renal = test system: ACHN renal
CCRF-CEM leukemia = test system: CCRF-CEM leukemia
MDA-MB-231 breast = test system: MDA-MB-231 breast
SNB-19 CNS = test system: SNB-19 CNS
M14 melanoma = test system: M14 melanoma
SW-620 colon = test system: SW-620 colon
COLO 205 colon = test system: COLO 205 colon
SK-MEL-2 melanoma = test system: SK-MEL-2 melanoma
UACC-257 melanoma = test system: UACC-257 melanoma
HS 578T breast = test system: HS 578T breast
UACC-62 melanoma = test system: UACC-62 melanoma
RXF 393 renal = test system: RXF 393 renal
PC-3 prostate = test system: PC-3 prostate
CAKI-1 renal = test system: CAKI-1 renal
MCF7 breast = test system: MCF7 breast
DU-145 prostate = test system: DU-145 prostate
HCT-15 colon = test system: HCT-15 colon
NCI-H522 lung = test system: NCI-H522 lung
NCI-H460 lung = test system: NCI-H460 lung
A549 NSCLC = test system: A549 NSCLC
U251 CNS = test system: U251 CNS
HT29 colon = test system: HT29 colon
KM12 colon = test system: KM12 colon
T-47D breast = test system: T-47D breast
HL-60(TB) leukemia = test system: HL-60(TB) leukemia
LOX IMVI melanoma = test system: LOX IMVI melanoma
BT-549 breast = test system: BT-549 breast
UO-31 renal = test system: UO-31 renal
SF-268 CNS = test system: SF-268 CNS
OVCAR-8 ovarian = test system: OVCAR-8 ovarian

Structure (SMILES): CN(C(=O)CSc1ccc2ccccc2c1)[C@H]1CCCC[C@H]1N1CCCC1
- TGI (EKVX NSCLC): > 100 µM
- TGI (TK-10 renal): 60.4 µM
- TGI (NCI/ADR-RES ovarian): > 100 µM
- TGI (MOLT-4 leukemia): 82 µM
- TGI (SR leukemia): 48.8 µM
- TGI (HOP-92 NSCLC): > 100 µM
- TGI (NCI-H322M lung): > 100 µM
- TGI (HCT-116 colon): > 100 µM
- TGI (SK-OV-3 ovarian): > 100 µM
- TGI (OVCAR-4 ovarian): > 100 µM
- TGI (NCI-H23 lung): > 100 µM
- TGI (K-562 leukemia): 45.4 µM
- TGI (SN12C renal): > 100 µM
- TGI (MDA-MB-435): 75 µM
- TGI (HCC-2998 colon): 31.9 µM
- TGI (OVCAR-3 ovarian): > 100 µM
- TGI (SF-295 CNS): 52.6 µM
- TGI (786-0 renal): 32.8 µM
- TGI (MALME-3M melanoma): 29.1 µM
- TGI (MDA-N): 54.2 µM
- TGI (A498 renal): 33.5 µM
- TGI (HOP-62 NSCLC): > 100 µM
- TGI (SNB-75 CNS): > 100 µM
- TGI (SK-MEL-5 melanoma): 29.9 µM
- TGI (SF-539 CNS): 30.9 µM
- TGI (OVCAR-5 ovarian): 56.7 µM
- TGI (SK-MEL-28 melanoma): > 100 µM
- TGI (RPMI-8226 leukemia): 51.9 µM
- TGI (NCI-H226 lung): 33.3 µM
- TGI (ACHN renal): > 100 µM
- TGI (CCRF-CEM leukemia): 55 µM
- TGI (MDA-MB-231 breast): 58.9 µM
- TGI (SNB-19 CNS): > 100 µM
- TGI (M14 melanoma): 29.2 µM
- TGI (SW-620 colon): > 100 µM
- TGI (COLO 205 colon): 32.9 µM
- TGI (SK-MEL-2 melanoma): 39.3 µM
- TGI (UACC-257 melanoma): 38.7 µM
- TGI (HS 578T breast): 82.8 µM
- TGI (UACC-62 melanoma): 50.4 µM
- TGI (RXF 393 renal): > 100 µM
- TGI (PC-3 prostate): 91 µM
- TGI (CAKI-1 renal): > 100 µM
- TGI (MCF7 breast): > 100 µM
- TGI (DU-145 prostate): > 100 µM
- TGI (HCT-15 colon): > 100 µM
- TGI (NCI-H522 lung): 41 µM
- TGI (NCI-H460 lung): 45.8 µM
- TGI (A549 NSCLC): > 100 µM
- TGI (U251 CNS): > 100 µM
- TGI (HT29 colon): 32.7 µM
- TGI (KM12 colon): > 100 µM
- TGI (T-47D breast): > 100 µM
- TGI (HL-60(TB) leukemia): 42.3 µM
- TGI (LOX IMVI melanoma): 30.7 µM
- TGI (BT-549 breast): 58.6 µM
- TGI (UO-31 renal): 75.6 µM
- TGI (SF-268 CNS): > 100 µM
- TGI (OVCAR-8 ovarian): > 100 µM
